# Measured values as given in patent US9539256B2 (THE BOARD OF REGENTS OF THE UNIVERSITY OF TEXAS SYSTEM, priority 2012, dated 2017).
# Biological target: T1, EPAC2 (Mus musculus, UniProt Q9EQZ6)
# T1 sequence (Q9EQZ6 1-1011): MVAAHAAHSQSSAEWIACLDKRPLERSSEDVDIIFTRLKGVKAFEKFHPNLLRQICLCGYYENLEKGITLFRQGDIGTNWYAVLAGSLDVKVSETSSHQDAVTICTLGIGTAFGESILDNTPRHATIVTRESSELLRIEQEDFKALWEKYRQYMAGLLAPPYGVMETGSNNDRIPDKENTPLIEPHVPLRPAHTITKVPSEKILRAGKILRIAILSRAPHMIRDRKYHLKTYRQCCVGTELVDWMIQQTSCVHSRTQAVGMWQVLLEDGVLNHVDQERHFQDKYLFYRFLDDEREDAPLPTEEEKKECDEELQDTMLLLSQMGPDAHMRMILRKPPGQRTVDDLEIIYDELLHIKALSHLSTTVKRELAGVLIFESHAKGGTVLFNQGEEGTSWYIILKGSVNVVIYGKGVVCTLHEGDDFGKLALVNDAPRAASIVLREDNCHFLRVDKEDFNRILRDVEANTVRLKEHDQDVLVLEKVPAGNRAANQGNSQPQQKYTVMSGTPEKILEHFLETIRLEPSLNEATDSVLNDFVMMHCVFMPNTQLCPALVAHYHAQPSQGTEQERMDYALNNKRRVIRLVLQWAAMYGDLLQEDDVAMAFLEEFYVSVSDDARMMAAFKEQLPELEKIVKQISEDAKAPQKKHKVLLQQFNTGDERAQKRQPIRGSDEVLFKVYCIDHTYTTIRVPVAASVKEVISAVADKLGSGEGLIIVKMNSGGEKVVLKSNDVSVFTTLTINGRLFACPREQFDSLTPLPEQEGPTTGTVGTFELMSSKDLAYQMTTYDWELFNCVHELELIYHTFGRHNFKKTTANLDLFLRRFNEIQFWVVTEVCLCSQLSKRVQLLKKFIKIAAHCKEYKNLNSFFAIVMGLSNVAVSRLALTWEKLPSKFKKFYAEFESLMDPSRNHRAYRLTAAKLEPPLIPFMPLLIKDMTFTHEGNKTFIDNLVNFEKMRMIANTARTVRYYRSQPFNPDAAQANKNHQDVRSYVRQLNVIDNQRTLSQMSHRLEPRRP
# Test: 8-NBD-cAMP competition binding to EPAC2
# Settings: competing with 8-NBD-cAMP in binding EPAC2; read-out: Apparent IC50
compound,measurement,value
Cc1ccc(S(=O)(=O)c2c(C)cc(C)cc2C)cc1 [ESI-05],IC50,480 ± 30 nM
